Values of other authors in US11787865B2, “Bifunctional molecules for lysosomal targeting and related compositions and methods” (The Board of Trustees of the Leland Stanford Junior …, priority 2018, dated 2023).

Tested on: HCC
Details: HCC patients; cited from earlier work

**Q.** For Cetuximab, which clinical outcome is on record?
**A.** Its clinical outcome is “failed in Phase II Clinical Trials”.
